From US8779109B2, “Growth hormones with prolonged in-vivo efficacy” (Novo Nordisk Health Care AG, priority 2010, dated 2014)

Experiment: Pharmacokinetics in Sprague Dawley rats after i.v. and s.c. single dose
Settings: rat, i.v. single dose 60 nmol/kg

Substance: 2-(C20diacid-Trx-γGlu-Glu-OEG-OEG-Gly-Glycin amid)-ethyl-N^α1-hGH [Compound 43.0, 2-(C20diacid-Trx-γGlu-Glu-OEG-OEG-Gly-Glycin amid)-ethyl-N^α1-hGH [Q84C, Y143C]]
- MRT: 9.8 h
- T1/2: 7.2 h
